In patent publication US4269857A, “Control of plant-virus diseases” (Kureha Kagaku Kogyo Kabushiki Kaisha, priority 1978, dated 1981):

Test system: tobacco mosaic virus (TMV)
Experiment: Inhibition of local lesion formation by TMV, half-leaf method on kidney bean primary leaves
Assay type: in vivo, tobacco mosaic virus on kidney bean plants (variety: Otebo)
Conditions: read-out: Evaluation (rate of inhibition of lesion spot formation)
From the text: The followings are the test results of the compounds of the present invention in the plant virus disease-controlling experiments. In the experiments one of the compounds of the present invention was formulated as in the above-mentioned Example 3 and after diluting the formulated composition with water to a predetermined concentration.
In this test, the inhibiting action of the compound of the present invention against the formation of local lesion due to the infection of tobacco mosaic virus (TMV) was examined by the half-leaf method using primary leaves of kedny been plants (variety: Otebo). TMV was inoculated on the primary leaf of kedney been plant, and just after the inoculation, the diluted liquid of the compound was painted on the half surface of the leaf and water was painted on the other half surface of the leaf. The concentration of the compounds of the present invention in the liquid was 500 ppm, and the inoculum was adjusted to form about 50 topical lesion spots on the half surface of the leaf painted with water (control). Ten leaves were usually used for the evaluation of one compound, and the rate of inhibition of lesion spot formation was derived from the following formula: [formula]
The thus obtained rates of inhibition were evaluated according to the following criteria: […]

CCCNC[C@H](O)[C@@H](O)[C@H](O)[C@H](O)CO [Compound 1]
inhibition at 500 ppm: 70 to 90%
